In patent US8207189B2, “Compound having affinity for amyloid” (Nihon Medi-Physics Co., Ltd., priority 2007, dated 2012) one finds IC50 data, which are given here for 1 molecule.

Chains of the proteins cited; added tags and fusions are not shown. Residues count along the entry.
UniProt P05067, 672-713: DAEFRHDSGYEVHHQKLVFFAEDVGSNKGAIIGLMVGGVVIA

The assay concerns the target T1, amyloid (aggregated Aβ1-42) (Homo sapiens, UniProt P05067).
T1 construct: Aβ1-42 (manufactured by Wako) was dissolved in phosphate buffer (pH 7.4); purchased Wako
The experiment in a line: in vitro binding test: inhibition of [125I]3′-I-BTA-0 binding to amyloid. Particulars: [125I]3′-I-BTA-0 400 pmol/L, amyloid 1 μmol/L, 22°C, 3 hours. On the procedure:
Affinity of the present compounds with amyloid was examined by the following in vitro binding tests.
The measured radioactivity level was defined as the background radioactivity level, and used in the calculation of the inhibition ratio (hereinafter referred to as BG).
(9) Using the radioactivity levels measured above in (7) and (8), the inhibition ratio was determined by the following formula (1).
A graph in which values converted by probit transformation from the obtained inhibition ratios were plotted relative to logarithms of concentrations of compounds for evaluation was prepared to obtain an approximate straight line by the least square method.

SMILES strings stand for the structures.

Usually IC50 stands for the concentration that inhibits the measured activity by half. A lower IC50 goes with greater potency in that assay. Consider `Cc1ccc2c(c1)sc(-c1ccc(N(C)C)cc1)[n+]2C` [Thioflavin T], for which the IC50 was > 1000 nM.
